Earlier results, collected in publication PMC5578202, “Bioaccessibility, Intestinal Permeability and Plasma Stability of Isorhamnetin Glycosides from Opuntia ficus-indica (L.)” (International Journal of Molecular Sciences, 2017).

Conditions: ref Ortega et al. [39]; cited from earlier work

**Q.** For myricetin-glucoside, which “Recovery after a simulated digestion process” value is on record?
**A.** 44.2%
